For assay [1], the target named is T1, CRF2R (Homo sapiens, UniProt Q13324).
T1 sequence (Q13324 1-411): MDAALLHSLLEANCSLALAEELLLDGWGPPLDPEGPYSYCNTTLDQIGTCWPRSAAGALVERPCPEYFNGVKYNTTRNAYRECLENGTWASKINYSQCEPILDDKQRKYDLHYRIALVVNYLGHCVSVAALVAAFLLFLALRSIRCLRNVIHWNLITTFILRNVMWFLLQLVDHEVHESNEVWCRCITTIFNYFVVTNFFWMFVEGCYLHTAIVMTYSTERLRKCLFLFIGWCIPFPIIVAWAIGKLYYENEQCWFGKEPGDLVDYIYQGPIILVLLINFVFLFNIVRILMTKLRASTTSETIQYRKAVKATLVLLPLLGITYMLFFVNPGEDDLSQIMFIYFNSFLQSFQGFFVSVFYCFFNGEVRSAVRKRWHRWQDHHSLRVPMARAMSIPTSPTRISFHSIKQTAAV
The experiment in a line: CRF2R agonist activity (EC50, Emax), called comparative CRF binding. It counts as cell-based. The text has this: (§1) The pharmacological activity and selectivity of the peptides of present invention can be determined using published test procedures. See, e.g, U.S. patent application Ser. No. 09/799,978. Because CRF2R and CRF1R are homologous proteins, it is expected that a certain proportion of agonists for CRF2R will also function as agonists of CRF1R. As discussed above, activation of CRF1R induces activation of the HPA axis since increased corticosteroid production leads to skeletal muscle atrophy. In most cases in which an increase in muscle mass or function is desired, it is not desirable to activate the HPA axis.
(§2) Because it is desirable to discriminate binding between CRF2R, as compared with CRF1R, the assays described above may be conducted using a cell, or membrane from a cell, which expresses only CRF2R or the assays can be conducted with a recombinant source of CRF2R. Cells expressing both forms of CRFR may be modified using homologous recombination to inactivate or otherwise disable the CRF1R gene. Alternatively, if the source of CRFR contains more than one CRFR type, the background signal produced by the receptor which is not of interest must be subtracted from the signal obtained in the assay. […] Known antagonists of CRFRs include, but, are not limited to, antalarmin (CRF1R selective), antisauvagine-30 (CRF2R selective) and astressin (nonselective for CRF1R/CRF2R).
(§3) Cell-based assays include the steps of contacting cells which express CRF1R or CRF2R with a peptide of the present invention or control and measuring activation of the CRFR by measuring the expression or activity of components of the CRFR signal transduction pathways.
(§4) As described in the background section above, CRFRs appear to couple through several different pathways including Gαs, Gαq or Gαi, depending upon the cell type. It is thought that agonist activation of CRFR allows the receptor to signal via any of these pathways, provided that the necessary pathway components are present in the particular cell type. Thus, to assay a particular peptide of the present invention for CRFR activation, an assay can use any of the signal transduction pathways as the readout even if the relevant cell type for treatment, in vivo, couples CRFR to skeletal muscle atrophy via a different pathway. […] Assays for measuring activation of these signaling pathways are known in the art.
(§5) For example, after contact with a peptide of the present invention, lysates of the cells can be prepared and assayed for induction of cAMP. cAMP is induced in response to Gαs activation. Because Gαs is activated by receptors other than CRFR and because a test peptide may be exerting its effect through CRFRs or by another mechanism, two control comparisons are relevant for determining whether the peptide increases levels of cAMP via activation of a CRFR. One control compares the cAMP level of cells contacted with the peptide and the cAMP level of cells contacted with a control compound (i.e., the vehicle in which the peptide is dissolved).
(§6) In one example, cAMP induction is measured with the use of DNA constructs containing the cAMP responsive element linked to any of a variety of reporter genes can be introduced into cells expressing CRFRs. Such reporter genes include, but are not limited to, chloramphenicol acetyltransferase (CAT), luciferase, glucuronide synthetase, growth hormone, fluorescent proteins (e.g., Green Fluorescent Protein), or alkaline phosphatase. Following exposure of the cells to the peptide, the level of reporter gene expression can be quantitated to determine the peptide's ability to increase cAMP levels and thus determine the peptide's ability to activate the CRFR.
(§7) In addition to using cells expressing full length CRFRs, cells can be engineered which express CRFRs containing the ligand binding domain of the receptor coupled to, or physically modified to contain, reporter elements or to interact with signaling proteins.

The target of assay [2] is T2, CRF1R (Homo sapiens, UniProt P34998).
T2 sequence (P34998 24-415): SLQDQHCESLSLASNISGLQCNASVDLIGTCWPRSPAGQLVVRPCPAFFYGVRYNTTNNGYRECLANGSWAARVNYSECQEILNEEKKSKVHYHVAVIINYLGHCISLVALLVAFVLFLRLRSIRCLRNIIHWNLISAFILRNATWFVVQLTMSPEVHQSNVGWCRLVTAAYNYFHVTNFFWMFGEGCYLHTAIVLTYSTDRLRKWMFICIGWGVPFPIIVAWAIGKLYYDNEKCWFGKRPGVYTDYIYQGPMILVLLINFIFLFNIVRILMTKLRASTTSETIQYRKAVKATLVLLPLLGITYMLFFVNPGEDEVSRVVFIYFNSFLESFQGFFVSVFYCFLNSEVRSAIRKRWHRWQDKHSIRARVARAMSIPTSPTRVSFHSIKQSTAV
The experiment in a line: CRF1R agonist activity (EC50, Emax), called comparative CRF binding. It counts as cell-based.
Text: as §1, §2, §3, §4, §5, §6, §7

Where two headings read alike, the source gives them in different places.

In general, EC50 refers to the concentration giving half of the maximal effect. Regarding `CC[C@H](C)[C@H](NC(=O)[C@H](CCC(=O)O)NC(=O)[C@@H](NC(=O)[C@H](CCSC)NC(=O)[C@H](CCCCN)NC(=O)[C@H](CCCNC(=N)N)NC(=O)[C@H](CC(C)C)NC(=O)[C@H](CC(C)C)NC(=O)[C@H](CCC(N)=O)NC(=O)[C@H](Cc1ccccc1)NC(=O)[C@@H]1CCCN1C(=O)[C@H](CC(C)C)NC(=O)[C@H](CC(=O)O)NC(=O)[C@@H](NC(=O)[C@H](CO)NC(=O)[C@@H](NC(=O)[C@@H]1CCCN1C(=O)[C@@H]1CCCN1C(=O)CNC(=O)[C@@H]1CCC(=O)N1)[C@@H](C)CC)[C@@H](C)CC)[C@@H](C)CC)C(=O)N[C@@H](CCC(=O)O)C(=O)N[C@@H](CCCCN)C(=O)N[C@@H](CCC(N)=O)C(=O)N[C@@H](CCC(=O)O)C(=O)N[C@@H](CCCCN)C(=O)N[C@@H](CCC(=O)O)C(=O)N[C@@H](CCCCN)C(=O)N[C@@H](CCC(N)=O)C(=O)N[C@@H](CCC(N)=O)C(=O)N[C@@H](C)C(=O)N[C@H](C(=O)N[C@@H](CC(N)=O)C(=O)N[C@@H](CC(N)=O)C(=O)N[C@@H](CCCNC(=N)N)C(=O)N[C@@H](CC(C)C)C(=O)N[C@@H](CC(C)C)C(=O)N[C@@H](CC(C)C)C(=O)N[C@@H](C)C(=O)N[C@H](C(=O)N[C@H](C(N)=O)C(C)C)[C@@H](C)O)[C@@H](C)O` [compound 12], the values for the EC50 in assay [1] and in assay [2] were 9.72 nM and 928 nM, respectively.

In the case of `CC[C@H](C)[C@H](NC(=O)[C@@H](NC(=O)[C@H](CC(=O)O)NC(=O)[C@H](CC(C)C)NC(=O)[C@H](CC(C)C)NC(=O)[C@H](CC(C)C)NC(=O)[C@H](CCCNC(=N)N)NC(=O)[C@H](CC(N)=O)NC(=O)[C@@H](NC(=O)[C@@H](NC(=O)[C@H](C)NC(=O)[C@H](CCC(N)=O)NC(=O)[C@H](CCC(N)=O)NC(=O)[C@H](CCCCN)NC(=O)[C@H](CCC(=O)O)NC(=O)[C@H](CCCCN)NC(=O)[C@H](CCC(=O)O)NC(=O)[C@H](CCC(N)=O)NC(=O)[C@H](CCCCN)NC(=O)[C@H](CCC(=O)O)NC(=O)[C@@H](NC(=O)[C@H](CCC(=O)O)NC(=O)[C@@H](NC(=O)[C@H](CCSC)NC(=O)[C@H](CCCCN)NC(=O)[C@H](CCCNC(=N)N)NC(=O)[C@H](CC(C)C)NC(=O)[C@H](CC(C)C)NC(=O)[C@H](CCC(N)=O)NC(=O)[C@H](Cc1ccccc1)NC(=O)[C@@H]1CCCN1C(=O)[C@H](CC(C)C)NC(=O)[C@H](CC(=O)O)NC(=O)[C@@H](NC(=O)[C@H](CO)NC(=O)[C@@H](NC(=O)[C@@H]1CCCN1C(=O)[C@@H]1CCCN1C(=O)CNC(=O)[C@@H]1CCC(=O)N1)[C@@H](C)CC)[C@@H](C)CC)[C@@H](C)CC)[C@@H](C)CC)[C@@H](C)O)[C@@H](C)O)[C@@H](C)O)C(N)=O` [compound 13], the EC50 in assay [1] was 3.88 nM; in assay [2], 97.7 nM.

Take `CC[C@H](C)[C@H](NC(=O)[C@@H](NC(=O)[C@H](CC(=O)O)NC(=O)[C@H](CC(C)C)NC(=O)[C@H](CC(C)C)NC(=O)[C@H](CC(C)C)NC(=O)[C@H](CCCNC(=N)N)NC(=O)[C@H](CC(N)=O)NC(=O)[C@H](CC(N)=O)NC(=O)[C@@H](NC(=O)[C@H](C)NC(=O)[C@H](CCC(N)=O)NC(=O)[C@H](CCC(N)=O)NC(=O)[C@H](CCCCN)NC(=O)[C@H](CCC(=O)O)NC(=O)[C@H](CCCCN)NC(=O)[C@H](CCC(=O)O)NC(=O)[C@H](CCC(N)=O)NC(=O)[C@H](CCCCN)NC(=O)[C@H](CCC(=O)O)NC(=O)[C@@H](NC(=O)[C@H](CCC(=O)O)NC(=O)[C@@H](NC(=O)[C@H](CCSC)NC(=O)[C@H](CCCCN)NC(=O)[C@H](CCCNC(=N)N)NC(=O)[C@H](CC(C)C)NC(=O)[C@H](CC(C)C)NC(=O)[C@H](CCC(N)=O)NC(=O)[C@H](Cc1ccccc1)NC(=O)[C@@H]1CCCN1C(=O)[C@H](CC(C)C)NC(=O)[C@H](CC(=O)O)NC(=O)[C@@H](NC(=O)[C@H](CO)NC(=O)[C@@H](NC(=O)[C@@H]1CCCN1C(=O)[C@@H]1CCCN1C(=O)CNC(=O)[C@@H]1CCC(=O)N1)[C@@H](C)CC)[C@@H](C)CC)[C@@H](C)CC)[C@@H](C)CC)[C@@H](C)O)[C@@H](C)O)C(N)=O` [compound 14]: the EC50 in assay [1] (read-out: CRF2R EC50) is 6.33 nM; in assay [2] (read-out: CRF1R EC50), 109 nM.

Take `CC[C@H](C)[C@H](NC(=O)[C@H](CCC(=O)O)NC(=O)[C@@H](NC(=O)[C@H](CCSC)NC(=O)[C@H](CCCCN)NC(=O)[C@H](CCCNC(=N)N)NC(=O)[C@H](CC(C)C)NC(=O)[C@H](CC(C)C)NC(=O)[C@H](CCC(N)=O)NC(=O)[C@H](Cc1ccccc1)NC(=O)[C@@H]1CCCN1C(=O)[C@H](CC(C)C)NC(=O)[C@H](CC(=O)O)NC(=O)[C@@H](NC(=O)[C@H](CO)NC(=O)[C@@H](NC(=O)[C@@H]1CCCN1C(=O)[C@@H]1CCCN1C(=O)CNC(=O)[C@@H]1CCC(=O)N1)[C@@H](C)CC)[C@@H](C)CC)[C@@H](C)CC)C(=O)N[C@@H](CCC(=O)O)C(=O)N[C@@H](CCCCN)C(=O)N[C@@H](CCC(N)=O)C(=O)N[C@@H](CCC(=O)O)C(=O)N[C@@H](CCCCN)C(=O)N[C@@H](CCC(=O)O)C(=O)N[C@@H](CCCCN)C(=O)N[C@@H](CCC(N)=O)C(=O)N[C@@H](CCC(N)=O)C(=O)N[C@@H](C)C(=O)N[C@@H](C)C(=O)N[C@@H](C)C(=O)N[C@@H](CC(N)=O)C(=O)N[C@@H](CCCNC(=N)N)C(=O)N[C@@H](CC(C)C)C(=O)N[C@@H](CC(C)C)C(=O)N[C@@H](CC(C)C)C(=O)N[C@@H](CC(=O)O)C(=O)N[C@H](C(=O)N[C@H](C(N)=O)C(C)C)[C@@H](C)O` [compound 15]: the EC50 worked out at 6.56 nM in assay [1] and 85.3 nM in assay [2].

With `CC[C@H](C)[C@H](NC(=O)[C@@H](NC(=O)[C@H](CC(=O)O)NC(=O)[C@H](CC(C)C)NC(=O)[C@H](CC(C)C)NC(=O)[C@H](CC(C)C)NC(=O)[C@H](CCCNC(=N)N)NC(=O)[C@H](CC(N)=O)NC(=O)[C@H](CC(N)=O)NC(=O)[C@H](C)NC(=O)[C@H](C)NC(=O)[C@H](CCC(N)=O)NC(=O)[C@H](CCC(N)=O)NC(=O)[C@H](CCCCN)NC(=O)[C@H](CCC(=O)O)NC(=O)[C@H](CCCCN)NC(=O)[C@H](CCC(=O)O)NC(=O)[C@H](CCC(N)=O)NC(=O)[C@H](CCCCN)NC(=O)[C@H](CCC(=O)O)NC(=O)[C@@H](NC(=O)[C@H](CCC(=O)O)NC(=O)[C@@H](NC(=O)[C@H](CCSC)NC(=O)[C@H](CCCCN)NC(=O)[C@H](CCCNC(=N)N)NC(=O)[C@H](CC(C)C)NC(=O)[C@H](CC(C)C)NC(=O)[C@@H](NC(=O)[C@H](CCC(N)=O)NC(=O)[C@@H]1CCCN1C(=O)[C@H](CC(C)C)NC(=O)[C@H](CC(=O)O)NC(=O)[C@@H](NC(=O)[C@H](CO)NC(=O)[C@@H](NC(=O)[C@@H]1CCCN1C(=O)[C@@H]1CCCN1C(=O)CNC(=O)[C@@H]1CCC(=O)N1)[C@@H](C)CC)[C@@H](C)CC)C(C)C)[C@@H](C)CC)[C@@H](C)CC)[C@@H](C)O)C(N)=O` [compound 197], the EC50 in assay [1] (read-out: CRF2R EC50) came to 48.1 nM.

For the origin of these results see US7192924B2, “Corticotropin releasing factor 2 receptor agonists” (priority 2002, dated 2007).
